The list shows a part of the results, in another mix than the full data. Some salts and complexes are drawn in separate pieces, as the source files them; their charges need not balance. The source made the active and inactive calls.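 Rule for the calls: active = inhibition at 20 µM, scaled to each plate's controls, above about 33% (limit read from the data); inactive = the rest.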
target: 26S proteasome non-ATPase regulatory subunit 14 (Homo sapiens) (UniProt O00487); test: Rpn11 (PSMD14) deubiquitinase inhibitors, primary screen, biochemical, fluorescence polarization, uHTS (AID 588493); details: human 26S proteasome, Ub4-pepOG fluorescence polarization; at 20 µM; active compounds read high; 20S core pre-blocked with epoxomicin

The chains behind the UniProt entries cited, without tags or fusion partners.
UniProt O00487, whole entry: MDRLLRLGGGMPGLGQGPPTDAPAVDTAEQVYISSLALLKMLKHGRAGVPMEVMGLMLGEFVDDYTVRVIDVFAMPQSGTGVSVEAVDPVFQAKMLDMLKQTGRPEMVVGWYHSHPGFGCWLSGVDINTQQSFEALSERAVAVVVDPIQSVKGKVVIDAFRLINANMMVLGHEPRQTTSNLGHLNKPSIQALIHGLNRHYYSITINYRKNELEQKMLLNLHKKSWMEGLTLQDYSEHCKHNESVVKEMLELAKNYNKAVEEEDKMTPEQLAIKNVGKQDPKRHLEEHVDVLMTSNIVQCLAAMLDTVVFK

| Structure (SMILES) | inhibition |
| --- | --- |
| CC1=NCCc2c1[nH]c1ccccc21.O=[N+]([O-])c1cc([N+](=O)[O-])c(O)c([N+](=O)[O-])c1 | inactive: -4.2% |
| O=C(O)c1cccc(Nc2c([N+](=O)[O-])cc([N+](=O)[O-])cc2[N+](=O)[O-])c1 | inactive: -3.4% |
| Cc1ccc(C)c(NP(C)(=O)Oc2ccccc2)c1 (centres undefined) | inactive: -2.6% |
| CP(=O)(Nc1cccc(Br)c1)Oc1ccccc1 (centres undefined) | inactive: 3% |
| Cc1cc(C)cc(OP(C)(=O)Nc2ccccn2)c1 (centres undefined) | inactive: -1.1% |
| COc1ccccc1OP(C)(=O)Nc1cccc(Br)c1 (centres undefined) | inactive: -2.1% |
| CCOC(=O)c1ccc(NP(C)(=O)Oc2cc(C)cc(C)c2)cc1 (centres undefined) | inactive: 1.4% |
| Cc1cc(C)cc(OP(C)(=O)Nc2ccc(C)cc2C)c1 (centres undefined) | inactive: 0.9% |
| O=[N+]([O-])c1cc([N+](=O)[O-])c(-c2cnn(-c3ccccc3)c2)c([N+](=O)[O-])c1 | inactive: 3.6% |
| Cc1nc2ccc3ccccc3c2s1.O=[N+]([O-])c1cc([N+](=O)[O-])c(O)c([N+](=O)[O-])c1 | inactive: 3.2% |
| O=[N+]([O-])c1cc([N+](=O)[O-])c(-n2nnc3ccccc32)c([N+](=O)[O-])c1 | inactive: -1.1% |
| CN(Cc1cccnc1)C(=O)COc1ccc(Cl)c(Cl)c1.O=[N+]([O-])c1cc([N+](=O)[O-])c(O)c([N+](=O)[O-])c1 | inactive: -20.5% |
| COc1ccccc1OP(C)(=O)Nc1c(C)cccc1C (centres undefined) | inactive: -0.6% |
| CN1CCCCC1COC(=O)C1(O)c2ccccc2CCc2ccccc21 (centres undefined) | inactive: -6.8% |
| CP(=O)(Nc1ccc(SC(F)(F)F)cc1)Oc1ccccc1 (centres undefined) | inactive: -17.2% |
| CCCOc1ccc(NP(C)(=O)Oc2ccc(Cl)cc2)cc1 (centres undefined) | inactive: 1.9% |
| O=[N+]([O-])c1cc([N+](=O)[O-])c(Nc2nnnn2CCO)c([N+](=O)[O-])c1 | inactive: -5.7% |
| CC1=C2N=C(C=C3N=C(C(C)=C4[N-][C@@](C)([C@@H]5N=C1[C@](C)(CCC(=O)NC[C@@H](C)OP(=O)([O-])O[C@H]1[C@@H](O)[C@@H](n6cnc7cc(C)c(C)cc76)O[C@@H]1CO)[C@H]5CC(N)=O)[C@@](C)(CC(N)=O)[C@@H]4CCC(N)=O)[C@@](C)(CC(N)=O)[C@@H]3CCC(N)=O)C(C)(C)[C@@H]2CCC(N)=O.[C-]#N.[Co+3] | inactive: -4.9% |
| CCOC(=O)C(CC)C1=NC(C)(C)Cc2ccccc21.O=[N+]([O-])c1cc([N+](=O)[O-])c(O)c([N+](=O)[O-])c1 (centres undefined) | inactive: -2.1% |
| CP(=S)(Nn1cnnc1)Oc1ccccc1 (centres undefined) | inactive: 0.9% |
| CP(=O)(Nc1ccccc1Br)Oc1ccccc1 (centres undefined) | inactive: 15.2% |
| COc1ccccc1OP(C)(=O)Nc1ccccc1 (centres undefined) | inactive: -2.3% |
| CCOC(=O)c1ccc(NP(C)(=O)Oc2ccc(OC)cc2)cc1 (centres undefined) | inactive: 5.7% |
| O=[N+]([O-])c1cc([N+](=O)[O-])c(O)c([N+](=O)[O-])c1.c1ccc(Oc2ccncc2)cc1 | inactive: 0% |

| Structure (SMILES) | inhibition |
| --- | --- |
| CCOP(C)(=S)SCC(=O)NC(C)C(=O)O (centres undefined) | inactive: -2.7% |
| CP(=O)(Nc1ccccn1)Oc1ccc(Cl)cc1 (centres undefined) | inactive: -3.7% |
| Cc1cccc(C)c1OP(C)(=O)Nc1ccc(SC(F)(F)F)cc1 (centres undefined) | inactive: -15.4% |
| Cc1ccc(Nc2c([N+](=O)[O-])cc([N+](=O)[O-])cc2[N+](=O)[O-])cc1 | inactive: -7.5% |
| CP(=O)(Nc1ccc(SC(F)(F)F)cc1)Oc1ccc(Cl)cc1 (centres undefined) | inactive: -7.2% |
| CP(=O)(Oc1ccccc1)OC(c1ccccc1)C(F)(F)F (centres undefined) | inactive: -7.9% |
| CCc1ccc(OP(C)(=O)N2CCN(c3ccc([N+](=O)[O-])cc3)CC2)cc1 (centres undefined) | inactive: 11.6% |
| CP(=O)(NC(=O)Nc1ccccc1)Oc1ccccc1 (centres undefined) | inactive: -4.5% |
| Cc1cc(C)cc(OP(C)(=O)Nc2ccc(SC(F)(F)F)cc2)c1 (centres undefined) | inactive: -4.3% |
| CCN(CC)CCCOC(=O)C(O)(c1ccccc1)c1ccccc1 | inactive: -7.5% |
| COc1ccccc1OP(C)(=O)Nc1ccc(C)cc1 (centres undefined) | inactive: -0.7% |
| Cc1ccc(NP(C)(=O)Oc2ccccc2)c(C)c1 (centres undefined) | inactive: 1.9% |
| CCOC(=O)c1ccc(NP(C)(=O)Oc2ccccc2)cc1 (centres undefined) | inactive: 2.2% |
| Cc1cc(C)cc(OP(C)(N)=O)c1 (centres undefined) | inactive: 1.7% |
| COc1ccccc1OP(C)(=O)Nc1cc(Cl)ccc1C (centres undefined) | inactive: 5.8% |
| COc1ccc(OP(C)(=O)Nc2cccc(F)c2)cc1 (centres undefined) | inactive: -0.5% |
| O=[N+]([O-])c1cc([N+](=O)[O-])c(Nc2cccnc2)c([N+](=O)[O-])c1 | inactive: -5.1% |
| O=[N+]([O-])c1ccc2c(c1)C=Nc1ccccc1O2 | inactive: -3.4% |
| CC(C)(C)c1ccc(OP(C)(=O)Nc2ccc(SC(F)(F)F)cc2)cc1 (centres undefined) | inactive: 3.4% |
| Cc1cccc(C)c1OP(C)(N)=O (centres undefined) | inactive: 0.2% |
| CP(=O)(OCCOc1ccccc1)OCCOc1ccccc1 | inactive: -7.5% |
| CCCCCCCCCCCCCCCC1C[N+](C)(C)CCOP(C)(=O)O1 (centres undefined) | active: 75.1% |
| CP(=O)(Nc1ccc(Cl)cc1Cl)Oc1ccccc1 (centres undefined) | inactive: 2.7% |
| O=C1C(O)=C([N+](=O)[O-])C(=O)C(O)=C1[N+](=O)[O-] | inactive: -34.2% |

| Structure (SMILES) | inhibition |
| --- | --- |
| Cc1cc(C)cc(OP(C)(=O)Nc2cccc(C(F)(F)F)c2)c1 (centres undefined) | inactive: 6.6% |
| COc1ccccc1OP(C)(=O)Nc1ccc(C)c(C)c1 (centres undefined) | inactive: 1.8% |
| COc1ccc(OP(C)(=O)Nc2ccccc2Br)cc1 (centres undefined) | inactive: -5.8% |
| O=[N+]([O-])c1cc([N+](=O)[O-])c(Nc2ccccn2)c([N+](=O)[O-])c1 | inactive: 3.5% |
| Cc1c(NP(C)(=O)Oc2ccc(C(C)C)cc2)c(=O)n(-c2ccccc2)n1C (centres undefined) | inactive: -4% |
| CP(=O)(Nc1ccccn1)Oc1ccccc1 (centres undefined) | inactive: 2.7% |
| COc1ccccc1OP(C)(=O)Nc1ccc(C)cc1C (centres undefined) | inactive: -2.6% |
| CCc1ccc(OP(C)(=O)O)cc1 | inactive: 2.4% |
| COc1ccccc1OP(C)(=O)Nc1ccc(Br)cc1 (centres undefined) | inactive: -26% |
| COc1ccc(OP(C)(=O)Nc2ccccn2)cc1 (centres undefined) | inactive: -0.4% |
| CN(C)CCOC(=O)C(O)(c1ccccc1)C1CCCC1 (centres undefined) | inactive: 5.7% |
| CC(C)(C)c1ccc(OP(C)(=O)O)cc1 | inactive: 3.8% |
| COc1ccccc1OP(C)(=O)Nc1ccccc1Br (centres undefined) | inactive: -9% |
| CP(=O)(Nc1ccc(Cl)cc1)Oc1ccc(F)cc1 (centres undefined) | inactive: -8.6% |
| CN(C)C(=O)c1c([N+](=O)[O-])cc([N+](=O)[O-])cc1[N+](=O)[O-] | inactive: 8.1% |
| CCN(CC)CC(O)COC(=O)C(O)(c1ccccc1)C1CCCCC1 (centres undefined) | inactive: -5.4% |
| COc1ccc(OP(C)(=O)Nc2ccc(Br)cc2)cc1 (centres undefined) | inactive: 4.5% |
| COc1ccccc1OP(C)(=O)Nc1c(C)n(C)n(-c2ccccc2)c1=O (centres undefined) | inactive: -2.7% |
| O=C(OCCCN1CCCC1)C(O)(c1ccccc1)C1CCCCC1 (centres undefined) | inactive: -1.3% |
| CP(=O)(Oc1ccccc1)N1CCOC1=O (centres undefined) | inactive: 0.8% |
| CCc1ccc(OP(C)(=O)Nc2cccnc2)cc1 (centres undefined) | inactive: -9.4% |
| CCOC(=O)c1ccc(NP(C)(=O)Oc2ccc(Cl)cc2)cc1 (centres undefined) | inactive: -10.3% |
| CP(=O)(OC12CC3CC(CC(C3)C1)C2)OC12CC3CC(CC(C3)C1)C2 | inactive: 0.5% |
| O=[N+]([O-])c1ccc(OP2(=O)COCCO2)cc1 (centres undefined) | inactive: -0.9% |

| Structure (SMILES) | inhibition |
| --- | --- |
| O=[N+]([O-])c1cc([N+](=O)[O-])c(NCC2CCS(=O)(=O)C2)c([N+](=O)[O-])c1 (centres undefined) | inactive: 0.3% |
| Cc1cc(-c2cccc3ccccc23)c(C)cn1.O=[N+]([O-])c1cc([N+](=O)[O-])c(O)c([N+](=O)[O-])c1 | inactive: -6.3% |
| Cc1c(C(c2ccc3c(c2)OCO3)c2c(C)n(C)n(-c3ccccc3)c2=O)c(=O)n(-c2ccccc2)n1C.O=[N+]([O-])c1cc([N+](=O)[O-])c(O)c([N+](=O)[O-])c1 | inactive: 1.6% |
| COc1ccc(OP(C)(=O)Nc2cccc(Br)c2)cc1 (centres undefined) | inactive: -12.5% |
| CN(C)CCOC(=O)C(O)(c1ccccc1)C1CCCCC1 (centres undefined) | inactive: -3% |
| CP(=O)(Nc1ccc2c(c1)OCCO2)Oc1ccccc1 (centres undefined) | inactive: 2.4% |
| Cc1ccccc1NP(C)(=O)Nc1ccccc1C | inactive: 0.2% |
| CP(=O)(Nc1ccc(SC(F)(F)F)cc1)Oc1ccc(F)cc1 (centres undefined) | inactive: -10.2% |
| CCOP(C)(=S)SCC(=O)NC(C)(CC)C(=O)O (centres undefined) | inactive: -0.1% |
| O=C(OC1CN2CCC1CC2)c1ccc([N+](=O)[O-])cc1 (centres undefined) | inactive: -1.9% |
| O=C(OCCN1CCN(CCOCc2ccccc2)CC1)C(O)(c1ccccc1)c1ccccc1 | inactive: 1.6% |
| COc1ccc2c(c1O)-c1c(O)c(OC)cc3c1[C@H](C2)[N+](C)(C)CC3.O=[N+]([O-])c1cc([N+](=O)[O-])c([O-])c([N+](=O)[O-])c1[O-] | inactive: -12.8% |
| O=[N+]([O-])c1cc([N+](=O)[O-])c(Nc2ccc(Cl)cc2)c([N+](=O)[O-])c1 | inactive: 0.7% |
| CP(=O)(Nc1ccccc1F)Oc1ccccc1 (centres undefined) | inactive: -7.2% |
| CC(C)c1ccc(OP(C)(=O)Nc2ccc(SC(F)(F)F)cc2)cc1 (centres undefined) | inactive: -2.5% |
| Cc1c([N+](=O)[O-])cc([N+](=O)[O-])c(Br)c1[N+](=O)[O-] | inactive: 1.9% |
| CCN(CC)CCCOC(=O)C(O)(c1ccccc1)C1CCCCC1 (centres undefined) | inactive: -3.1% |
| CP(=O)(Nc1ccccc1)Oc1ccc(F)cc1 (centres undefined) | inactive: -1.7% |
| CCCCCOc1ccc(NP(C)(=O)Oc2ccc(Cl)cc2Cl)cc1 (centres undefined) | inactive: 1.1% |
| O=[N+]([O-])c1cc([N+](=O)[O-])c(OC2CCCCC2O)c([N+](=O)[O-])c1 (centres undefined) | inactive: 0.7% |
| CCOC(=O)c1ccc(NP(C)(=O)Oc2ccc(F)cc2)cc1 (centres undefined) | inactive: 0.1% |
| COc1ccc(OP(C)(=O)Nc2ccc(SC(F)(F)F)cc2)cc1 (centres undefined) | inactive: -3.3% |
